Assay results published in PMC4106024 (Cancer biology & therapy, 2008).
Values joined by “and” are separate entries in the source; they are usually repeats but may differ in a detail not shown here. Equal values may be shown once.

Chains of the proteins cited; added tags and fusions are not shown.
UniProt P10415, whole entry: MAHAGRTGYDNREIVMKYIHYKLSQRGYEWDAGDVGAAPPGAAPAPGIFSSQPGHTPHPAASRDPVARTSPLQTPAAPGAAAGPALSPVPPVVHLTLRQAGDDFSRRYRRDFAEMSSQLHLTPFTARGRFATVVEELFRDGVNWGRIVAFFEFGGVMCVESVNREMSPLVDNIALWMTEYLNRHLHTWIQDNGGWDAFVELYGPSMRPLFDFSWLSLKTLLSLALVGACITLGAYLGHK
UniProt Q07817, whole entry: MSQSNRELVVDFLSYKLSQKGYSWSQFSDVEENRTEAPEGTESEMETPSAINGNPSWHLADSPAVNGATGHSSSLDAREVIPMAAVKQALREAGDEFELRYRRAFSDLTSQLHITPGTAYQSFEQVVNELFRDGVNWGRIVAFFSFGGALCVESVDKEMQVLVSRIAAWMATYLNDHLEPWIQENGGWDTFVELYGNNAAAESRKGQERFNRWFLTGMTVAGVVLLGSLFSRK

Columns and labels:
WSU-DLCL2 cells = assay: Cell growth inhibition by Trypan Blue cell counting and MTT assay; assay type: cell-based, human; settings: read-out: IC50, 50% growth inhibition concentration; WSU-DLCL2, 72 h; estimated from cell counting and MTT
recombinant human Bcl-2 = recombinant human Bcl-2 (Homo sapiens, UniProt P10415); assay: Fluorescence polarization-based competitive binding assay
[1] = target: heterodimers between Bcl-XL and Bim (Homo sapiens, UniProt Q07817); assay: Co-immunoprecipitation of pro- and anti-apoptotic complexes in WSU-DLCL2 cells; assay type: cell-based; settings: WSU-DLCL2, co-immunoprecipitation with anti-Bcl-XL antibody
recombinant human Bcl-XL = recombinant human Bcl-XL (Homo sapiens, UniProt Q07817); settings: n = 3

With Apogossypolone [ApoG2] as the substance, how does the IC50 (WSU-DLCL2 cells) read?
The IC50 was ~350 nM and 350 nM.

And the “IC50 relative to Ki for Bcl-2” value (recombinant human Bcl-2; IC50 higher than Ki)?
The value was 10 fold.

And the Ki (recombinant human Bcl-2; recombinant Bcl-2, n = 3)?
The Ki was 35 ± 14 nM.

What about the “Formation of heterodimers between Bcl-XL and Bim” value [1] of the same substance?
The value was “blocked the formation of heterodimers between Bcl-XL and Bim in a concentration-dependent manner”.

What about the Ki (recombinant human Bcl-XL) of the same substance?
Its Ki is 660 ± 62 nM.
